Binding of CDR-mutated scFvs to a peptide of the spike HR2 region

The measurements come from Engelhart et al. 2022 (doi:10.1038/s41597-022-01779-4) through the FLAb antibody collection.

The target is the same throughout: PDVDLGDISGINAS, from the HR2 region of SARS-CoV-2 spike.

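Phage display of a naive human antibody library on the peptide gave the parent. Library AAYL52 holds single substitutions and randomly drawn double and triple substitutions in the CDRs. The assay is AlphaSeq: two haploid yeast populations carry antibody and antigen on their surface. Pairs that bind mate more often; barcode pairs of the diploids are counted by sequencing. Scores were corrected for input abundance and mapped to Kd with protein pairs of known affinity run in the same pool. There are three technical replicates.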

Ab-95 is the parent antibody, in scFv form: VH, then a 15-residue (Gly4Ser)3 linker, then VL. The heavy chain is unchanged in all variants.
VH: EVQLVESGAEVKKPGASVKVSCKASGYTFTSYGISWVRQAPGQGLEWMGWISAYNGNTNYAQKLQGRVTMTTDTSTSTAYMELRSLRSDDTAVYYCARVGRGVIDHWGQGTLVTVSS
VL: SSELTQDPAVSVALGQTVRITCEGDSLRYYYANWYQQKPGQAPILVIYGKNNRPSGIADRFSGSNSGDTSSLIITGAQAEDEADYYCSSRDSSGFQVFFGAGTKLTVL

Substitutions are numbered in sequence along the VL above, starting at 1 (not Kabat).
Affinities are written as log10 Kd with Kd in nM; a lower number is a better binder.
Replicates are averaged; those with no signal do not enter the mean.
"no signal" marks a missing value. The strain was present, yet no cells mated with the target were sequenced in any replicate, which points to weak or no binding.
Three control strains display no target. For library AAYL52, 28% of the pairings with them gave a signal, with a median of 3.91 and one signal in twenty below 2.90, so weak values seen in few replicates may be background. The control count says in how many pairings with the empty strains this scFv gave a signal.

| changes | log10 Kd (nM), mean | detected | empty controls |
|---|---|---|---|
| N52W V97F F98L | 3.69 | 2 of 3 | 3 of 9 |
| G49W P54A S88I | 3.07 | 3 of 3 | 3 of 9 |
| N51R S93N F95I | 3.93 | 1 of 3 | 3 of 9 |
| D25N S26K N52W | 4.48 | 1 of 3 | 4 of 9 |
| R28F R53L R90N | 3.95 | 1 of 3 | 1 of 9 |
| L27V S88Q R90Y | 4.76 | 1 of 3 | 0 of 9 |
| N51H R53F D91F | 4.87 | 1 of 3 | 2 of 9 |
| A32I R90W | no signal | 0 of 3 | 3 of 9 |
| G49D F95H V97R | no signal | 0 of 3 | 1 of 9 |
| S26G N52R F98Q | 3.37 | 2 of 3 | 4 of 9 |
| N52E S93V Q96G | 1.74 | 3 of 3 | 3 of 9 |
| D25P R90L S92P | no signal | 0 of 3 | 1 of 9 |
| G49S N51I G94H | 3.99 | 2 of 3 | 6 of 9 |
| K50E S55Y F95I | 3.99 | 1 of 3 | 1 of 9 |
| S93T G94T F95L | no signal | 0 of 3 | 2 of 9 |
| S26A S55W D91M | 4.31 | 1 of 3 | 0 of 9 |
| S26Q S92C | 3.73 | 2 of 3 | 3 of 9 |
| D25N N33P R53M | 4.44 | 2 of 3 | 3 of 9 |
| D91I S93D G94W | 2.86 | 3 of 3 | 0 of 9 |
| G24E D91N F95T | 4.33 | 1 of 3 | 1 of 9 |
| N33A S88Y F98Q | 3.53 | 2 of 3 | 3 of 9 |
| S89I R90T Q96W | 3.08 | 3 of 3 | 2 of 9 |
| Y29W N51R | 4.10 | 2 of 3 | 3 of 9 |
| A32M R53F G94D | 4.83 | 2 of 3 | 1 of 9 |
| S26G Q96K | 3.01 | 3 of 3 | 3 of 9 |
| G49A D91E Q96T | 4.22 | 2 of 3 | 2 of 9 |
| L27Y S92K F98M | no signal | 0 of 3 | 1 of 9 |
| D25L Y29H A32K | 2.98 | 3 of 3 | 3 of 9 |
| D91R S92L Q96R | 2.38 | 3 of 3 | 4 of 9 |
| Y30D R90K S92F | 1.65 | 3 of 3 | 1 of 9 |
| L27D S88I S92F | no signal | 0 of 3 | 4 of 9 |
| Y30F N52F S55N | 3.08 | 3 of 3 | 0 of 9 |
| G49D S89I G94N | no signal | 0 of 3 | 0 of 9 |
| D25T L27F G49D | 2.96 | 3 of 3 | 1 of 9 |
| L27H Y31S V97F | 3.66 | 2 of 3 | 2 of 9 |
| G49K S55I F95S | 3.84 | 3 of 3 | 1 of 9 |
| G49C N52P S88A | 4.35 | 1 of 3 | 1 of 9 |
| L27N P54I S88I | 4.46 | 3 of 3 | 4 of 9 |
| D25Q R28L N52R | 2.63 | 3 of 3 | 1 of 9 |
| L27E G49W K50E | 4.72 | 1 of 3 | 3 of 9 |
| E23Y L27S A32C | 3.81 | 3 of 3 | 3 of 9 |
| N33C P54F Q96K | 4.62 | 2 of 3 | 4 of 9 |
| S26C N52V | 5.38 | 1 of 3 | 1 of 9 |
| D25C S26K P54W | 4.65 | 2 of 3 | 3 of 9 |
| D25R S26R S55P | 4.34 | 1 of 3 | 1 of 9 |
| G24N G49K V97M | no signal | 0 of 3 | 4 of 9 |
| G24N N33K S93G | no signal | 0 of 3 | 3 of 9 |
| S89Y D91N Q96V | 2.45 | 3 of 3 | 1 of 9 |
| Y30G V97E F98C | 1.55 | 3 of 3 | 1 of 9 |
| S26W A32P S92C | 3.44 | 3 of 3 | 4 of 9 |
| G24E N52S Q96L | 3.86 | 1 of 3 | 3 of 9 |
| S26M P54R | 3.10 | 1 of 3 | 1 of 9 |
| G49K K50Q | 3.04 | 3 of 3 | 1 of 9 |
| Y30N D91A S92C | 1.34 | 3 of 3 | 5 of 9 |
| G24D Y31Q F95T | 2.50 | 3 of 3 | 4 of 9 |
| Y30W S88R D91F | 4.09 | 2 of 3 | 4 of 9 |
| Y29D P54W S88P | no signal | 0 of 3 | 0 of 9 |
| L27C Y30E S88I | no signal | 0 of 3 | 1 of 9 |
| G24M S26Q Y29F | 4.25 | 3 of 3 | 5 of 9 |
| S92E F95L | 2.60 | 3 of 3 | 2 of 9 |
| E23S N52S R53C | 3.38 | 3 of 3 | 3 of 9 |
| Y31V G94E F98E | 4.23 | 2 of 3 | 0 of 9 |
| S88F Q96M | 2.75 | 2 of 3 | 0 of 9 |
| D25E N33G Q96E | 3.03 | 3 of 3 | 1 of 9 |
| S26N K50F S89M | 5.03 | 2 of 3 | 5 of 9 |
| L27I G94N V97F | 3.65 | 1 of 3 | 3 of 9 |

The last 7 entries again:

| changes | log10 Kd (nM), mean | detected | empty controls |
|---|---|---|---|
| S92E F95L | 2.60 | 3 of 3 | 2 of 9 |
| E23S N52S R53C | 3.38 | 3 of 3 | 3 of 9 |
| Y31V G94E F98E | 4.23 | 2 of 3 | 0 of 9 |
| S88F Q96M | 2.75 | 2 of 3 | 0 of 9 |
| D25E N33G Q96E | 3.03 | 3 of 3 | 1 of 9 |
| S26N K50F S89M | 5.03 | 2 of 3 | 5 of 9 |
| L27I G94N V97F | 3.65 | 1 of 3 | 3 of 9 |